Binding of CDR-mutated scFvs to a peptide of the spike HR2 region

Target: peptide PDVDLGDISGINAS, taken from heptad repeat 2 (HR2) of SARS-CoV-2 spike.

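The starting antibody came from a phage panning campaign against this peptide. Variants in AAYL51 differ from the parent at up to three CDR positions; double and triple changes were sampled at random. In AlphaSeq, yeast of one mating type display the scFv and yeast of the other type display the target. Pairs that bind mate more often; barcode pairs of the diploids are counted by sequencing. Read counts were normalised to the haploid input and turned into Kd by a linear fit to BCL2-family pairs of known affinity, for each replicate. There are three technical replicates.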

Parent scFv Ab-91: VL joined to VH by the linker GGGGSGGGGSGGGGS. Changes lie in the heavy chain CDRs alone.
VL: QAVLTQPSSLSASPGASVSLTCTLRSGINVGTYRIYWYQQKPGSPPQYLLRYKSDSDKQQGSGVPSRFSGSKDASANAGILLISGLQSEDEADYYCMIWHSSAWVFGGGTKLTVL
VH: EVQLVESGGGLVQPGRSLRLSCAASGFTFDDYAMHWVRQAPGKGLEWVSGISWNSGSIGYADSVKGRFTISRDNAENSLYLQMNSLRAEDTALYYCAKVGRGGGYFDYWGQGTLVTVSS

Changes read parent residue, position, new residue, counted from the first residue of the VH shown. All variants listed here change F29 of the VH, counted from its first residue. Values are apparent Kd, the geometric mean of the replicates that gave a signal; lower means stronger binding. "no signal" marks a missing value. The strain was present, yet no cells mated with the target were sequenced in any replicate, which points to weak or no binding. Three control strains display no target. For library AAYL51, 21% of the pairings with them gave a signal, with a median of 34 µM and one signal in twenty below 1.8 µM, so weak values seen in few replicates may be background.

F29S/Y60F/G104N: 130 µM (2 of 3 replicates).
F29R/Y32A/I51S: 49 µM (1 of 3 replicates).
F29T/R101Y/G102N: 97 µM (2 of 3 replicates).
F29C/V64E/G102C: 26 µM (3 of 3 replicates).
F29Y/G56T/G103P: no signal (0 of 3 replicates).
G26P/F29C/V64G: no signal (0 of 3 replicates).
F29H/H35T/D62P: 26 µM (1 of 3 replicates).
F29L/M34A/F106D: 520 µM (1 of 3 replicates).
F27N/F29V/I51P: no signal (0 of 3 replicates).
F29V/F106P/D107F: 3.6 µM (1 of 3 replicates).
F29C/D62E/S63C: 110 µM (3 of 3 replicates).
T28C/F29Q: 26 µM (1 of 3 replicates).
F29C/G59T/G104S: no signal (0 of 3 replicates).
F29T/D30R: no signal (0 of 3 replicates).
F29C/G50V/I51W: no signal (0 of 3 replicates).
F29E/S63G/R101Q: 56 µM (1 of 3 replicates).
F29W/S55T/S63L: 240 µM (1 of 3 replicates).
F27I/T28H/F29P: no signal (0 of 3 replicates).
F29G/G56F/V64K: 340 µM (2 of 3 replicates).
F29H/S52Y/S55T: no signal (0 of 3 replicates).
F29I/A61Q/G103C: no signal (0 of 3 replicates).
F29E/S52F: 360 µM (2 of 3 replicates).
F27W/F29V/I51F: no signal (0 of 3 replicates).
F29I/I58T/G59W: 1.7 mM (2 of 3 replicates).
F29A/A61V/G100N: no signal (0 of 3 replicates).
F29D/F106V: no signal (0 of 3 replicates).
F29R/G104S: no signal (0 of 3 replicates).
F29H/I51A/G56P: 39 µM (2 of 3 replicates).
F29M/D31Q/A61G: 25 nM (3 of 3 replicates).
F29E/H35E/Y60R: 63 µM (3 of 3 replicates).
F29I/G50K/G56C: 8.9 µM (1 of 3 replicates).
F29Q/G50W: no signal (0 of 3 replicates).
F29G/A61H/S63Q: 110 µM (1 of 3 replicates).
F29I/D30L/S52G: 5.1 µM (1 of 3 replicates).
F29C/G59W/D62K: no signal (0 of 3 replicates).
F29N/D107M: 8.1 µM (1 of 3 replicates).
F29L/G59V: no signal (0 of 3 replicates).
F29L/V64F/D107T: no signal (0 of 3 replicates).
T28I/F29G/I51T: 47 µM (2 of 3 replicates).
F29G/Y60G/G102D: no signal (0 of 3 replicates).
G26Y/F29Q/G103R: 330 µM (1 of 3 replicates).
F29G/H35K/W53L: no signal (0 of 3 replicates).
F29S/I51E/S63E: no signal (0 of 3 replicates).
F29V/Y32I/V64Q: no signal (0 of 3 replicates).

Excerpt, the final 6 entries:

| changes | Kd (apparent) | seen in |
|---|---|---|
| T28I/F29G/I51T | 47 µM | 2 of 3 |
| F29G/Y60G/G102D | no signal | 0 of 3 |
| G26Y/F29Q/G103R | 330 µM | 1 of 3 |
| F29G/H35K/W53L | no signal | 0 of 3 |
| F29S/I51E/S63E | no signal | 0 of 3 |
| F29V/Y32I/V64Q | no signal | 0 of 3 |

From the AlphaSeq antibody data of Engelhart et al. 2022 (doi:10.1038/s41597-022-01779-4), copy in the FLAb collection.